High-throughput results: PubChem, Broad Institute
Hits are enriched below; roughly 1.5% of the tested compounds scored in any of these assays.
Casp6 inh: human caspase-6 inhibitors, primary screen, biochemical, VEID-R110 fluorescence, single point, set 2 | P55212 | purified caspase-6, Z-VEID-R110 cleavage fluorescence | inhibition, % at 12.5 µM | 350,000 compounds, 0.53% hits;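 active = mean inhibition across replicates at least about 35%, with every replicate also reaching that limit, limit read from the data; inconclusive = only one of the two criteria met; inactive = neither criterion met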
RAD54 branch: inhibitors of human RAD54 branch migration, primary screen, biochemical, fluorescence, single point. RAD54 Holliday junction branch migration, FAM/BHQ fluorescence. inhibition, % at 10.4 µM. 360,000 compounds, 0.14% hits;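 active = mean normalized replicate activity at least 40 and at least half of replicates scoring 40 or more; inconclusive = only one of the two criteria met; inactive = mean below 40 and under half of replicates reaching 40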;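 note: inhibitors cause a drop in the FAM fluorescence signal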
UUG fidelity: alters start codon recognition fidelity in yeast; S. cerevisiae UUG-firefly luciferase reporter, luminescence/redox ratio; activity score, % at 18.7 µM; actives 0.13% (n = 350,000); AID 602363;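 active = replicate mean at a twofold rise or more, about +100% in these data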;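 also: firefly luciferase made from a UUG start codon reports start codon fidelity; reporter light over untreated wells divided by growth signal over untreated wells; some hits fall short of that in this replicate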
RAD52 anneal inh: RAD52 DNA annealing inhibitors, primary screen, biochemical, FRET, single point, set 2. inhibition, % at 18.7 µM. 360,000 compounds, 0.46% hits. DNA repair protein RAD52 homolog (Homo sapiens), P43351. AID 651710, 2012. recombinant RAD52 DNA annealing, FRET fluorescence;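 active = every replicate showing at least 50% inhibition; inconclusive = mean inhibition at least 50% but not in every replicate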
PglD inh: C. jejuni PglD acetyltransferase inhibitors, primary screen, biochemical, DTNB colorimetric, single point; UDP-N-acetylbacillosamine N-acetyltransferase PglD (Campylobacter jejuni); purified PglD enzyme, DTNB colorimetric CoA detection; inhibition, % at 12.5 µM; 360,000 compounds, 0.098% hits; AID 602405, 2012; in the data active = inhibition above about 16%, passing the limit was not always enough; inconclusive = no clear call, values can overlap the other calls
INS-1E GSIS act: GLuc luminescence reporter in INS-1E cells, primary screen for activators of glucose-dependent secretion of insulin; activation, % at 16.6 µM; INS-1E GLuc reporter insulin secretion, 2-3 h; AID 743287, 2014; 370,000 compounds, 0.61% hits;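 active = lowest replicate activation of at least 40%, so every replicate reaches that level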
Rad54 DNA ctr: DNA binding of candidate compounds, dose response, artefact control for RAD54 inhibitor project, biochemical, fluorescence polarization, cherry-pick. shares compounds with RAD54 branch. Acridine orange-DNA displacement, 20 min. AC50, µM (highest dose often 35 µM). 460 compounds, 8% hits;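 active = signal drop giving an AC50 within twice the top valid tested concentration of each sample, actives reach about 35 µM in these data; inactive = activity opposite to expected, plus the rest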;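 note: polarization loss reports compound binding to salmon sperm DNA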
PglD inh SP: PglD acetyltransferase inhibitors, confirmation, biochemical, DTNB absorbance, single point, cherry-picked samples. inhibition, % at 20 µM. shares compounds with PglD inh. 320 tested, under 10 active. AID 743156, 2013. Purified C. jejuni PglD, DTNB absorbance 412 nm;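 active = mean inhibition across replicates of at least 20% with every single replicate also at 20% or more; inconclusive = mean inhibition at least 20% but some replicate falls below 20%; inactive = mean inhibition under 20% and not all replicates reach it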;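 note: initial rate of CoA release by acetyl transfer from AcCoA to the UDP-4-amino sugar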
DNA binder FP: DNA-binding compounds via dye displacement, dose response, artefact control for RAD52 inhibitor project, biochemical, fluorescence polarization, cherry-pick. shares compounds with RAD52 anneal inh. Salmon sperm DNA/acridine orange FP displacement. AC50, µM. 1,000 compounds, 8% hits. AID 652128, 2013;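 active = fitted half-maximal concentration for signal loss at or below twice the highest dose tested, in every separate run, actives reach about 64 µM in these data; inconclusive = runs disagree, or flat partial signal loss, or poor fit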
Numbers stand for hits; n = inactive; u = inconclusive; x = no result.

SMILES	Casp6 inh	RAD54 branch	UUG fidelity	RAD52 anneal inh	PglD inh	INS-1E GSIS act	Rad54 DNA ctr	DNA binder FP	others
CSc1nc(SCC(N)=O)c2c3c(sc2n1)CN(C)CC3	x	58.6	n	x	n	n	n	x
Cc1ccnc(SCC(=O)Nc2sc3c(c2C#N)CCC(C(C)(C)C)C3)n1 (configuration not stated)	x	u	n	x	n	x	n	x
COc1ccc(Nc2nc(N3CCCCC3)nc3ccccc23)c(OC)c1	x	55.2	n	x	n	n	n	x
NCCN1CCN(CCN)CC1	x	50.1	n	x	n	x	n	x
Cc1ccc(S(=O)(=O)NCCCNS(=O)(=O)c2ccccc2[N+](=O)[O-])cc1	n	u	n	n	n	n	n	x
Cc1ccc(S(=O)(=O)NCC(C)NS(=O)(=O)c2ccccc2[N+](=O)[O-])cc1 (configuration not stated)	n	n	n	n	n	n	x	x
COCC(=O)N1[C@@H](C#N)[C@H](c2ccc(C#Cc3ccccc3F)cc2)[C@@H]1CO	n	n	n	n	n	n	x	x
c1ccc2c(N3CCCC3)nc(-c3ccncc3)nc2c1	x	x	x	x	x	n	x	x
CN1CCN(c2nc(-c3cccs3)nc3ccccc23)CC1	n	71.2	n	n	n	n	n	x
OCCN1CCN(c2nc(-c3ccccc3O)nc3ccccc23)CC1	n	73.3	n	n	n	n	n	x
CN1CCN(c2nc(-c3ccncc3)nc3ccccc23)CC1	x	86.9	n	x	n	x	n	x
CN(C)C(=O)c1cccc(-c2ccc3c(c2)[C@H]2[C@H](CCN2C(=O)c2cccnc2)[C@@H](CO)N3)c1	x	n	n	x	n	n	x	x
Cc1[nH]c(=O)[nH]c(=O)c1S(=O)(=O)Nc1ccc(F)cc1Cl	n	n	n	n	n	n	x	x
Cc1c(-c2cc(Br)ccc2O)nc2cc3c(cc2c1C)OCO3	n	u	n	n	n	n	n	x
O=S(=O)(NC1CCCCC1)c1ccc(Br)s1	n	n	n	n	n	n	x	x
c1ccc2c(c1)oc1c(Nc3ccc(CN4CCOCC4)cc3)ncnc12	x	54.1	n	x	20.4	x	n	x	PglD inh SP=n
COc1ccc2c(CC(=O)OCC(=O)Nc3ccc(C)cc3)coc2c1	n	n	n	n	n	n	x	x
Nc1c2ccccc2nc2ccccc12	n	121.2	n	97.8	n	n	26µM	32.7µM
c1c[nH]c(CN2CCN(Cc3ncc[nH]3)CC2)n1	n	u	n	56.1	n	x	n	n
c1ccc(N2CCN(Cc3nc4ccccc4[nH]3)CC2)nc1	n	n	n	n	n	n	x	x
CN(C)CCNC(=O)c1cc2c(s1)-c1ccc(Cl)cc1SC2	n	56.7	n	81.2	n	227.5	n	u
CCOc1cccc(-c2cc(N3CCN(CCO)CC3)n3nccc3n2)c1	n	n	n	n	n	n	x	x
Cc1cccc(-c2cc(N3CCCN(C)CC3)n3nccc3n2)c1	n	u	n	102.8	n	n	n	n
CN1CCCN(c2cc(-c3ccc4ccccc4c3)nc3ccnn23)CC1	n	63.6	n	104.3	n	n	n	n
CCC(=O)N1[C@@H]2c3ccc(C4=CCCC4)c(=O)n3C[C@H]1[C@H](CO)[C@H]2C(=O)NCC1CCCCC1	n	n	x	n	n	n	x	x
SMILES	Casp6 inh	RAD54 branch	UUG fidelity	RAD52 anneal inh	PglD inh	INS-1E GSIS act	Rad54 DNA ctr	DNA binder FP	others
CCN(CC)CCNC(=S)Nc1ccc2nc(N3CCN(C)CC3)cc(C)c2c1	n	84.8	n	86.9	n	n	n	n
CCCN(CCC)CCCNC(=S)Nc1ccc2nc(N3CCCC3)cc(C)c2c1	n	98.7	n	92.2	n	n	n	n
Cc1cc(N2CCN(C)CC2)nc2ccc(NC(=S)NCCCN3CCN(C)CC3)cc12	n	77.5	n	82.2	n	n	n	n
CCCCN(CC)CCCNC(=S)Nc1ccc2nc(N3CCN(C)CC3)cc(C)c2c1	n	88.5	n	92.3	n	n	n	n
COc1ccc(CNC(=S)Nc2ccc3nc(N4CCN(C)CC4)cc(C)c3c2)cc1	n	n	n	n	n	n	x	x
CCN(CC)CCNC(=S)Nc1ccc2nc(N3CCOCC3)cc(C)c2c1	n	n	n	n	n	n	x	x
Cc1cc(N2CCOCC2)nc2ccc(NC(=S)NCCN(C)C)cc12	x	n	n	n	n	n	x	x
Cc1cc(NC(=O)Cc2cn(C)c3ccccc23)ccc1Oc1cccnc1	n	x	x	n	x	x	x	x
N#Cc1c(N2CCCC2)nsc1-c1ccccc1	n	n	n	n	n	n	x	x
Cc1c(C(=O)N2CCC(N3CCSCC3)CC2)oc2c(F)cccc12	n	n	n	n	n	n	x	x
CCOC(=O)C1CCN(CC(O)COCc2ccc(Cl)cc2)CC1 (configuration not stated)	n	n	n	n	n	x	x	x
Cc1cc(C(=O)NC(C)C2CCCO2)no1 (configuration not stated)	n	n	n	n	n	n	x	x
COc1ccc(-c2oc3ncnc(NCCCN(C)C)c3c2-c2ccc(OC)cc2)cc1	n	74.7	n	85.3	n	n	n	n
C[C@@H]1CN([C@@H](C)CO)C(=O)c2cc(NS(=O)(=O)c3ccc(Cl)cc3)ccc2O[C@@H](C)CCCCO[C@H]1CN(C)Cc1ccc2c(c1)OCO2	n	n	n	n	n	n	x	x
NC(=O)CN1CCN(CCN2C(=O)c3cccc4cccc(c34)C2=O)CC1	n	57.6	n	n	n	n	n	n
O=C1c2ccccc2C(=O)N1CCN1CCCCC1	x	x	x	x	x	n	x	x
CCNC(=S)N1CCN(CCN2C(=O)c3cccc4cccc(c34)C2=O)CC1	n	n	n	n	n	n	x	x
O=C1c2cccc3cc([N+](=O)[O-])cc(c23)C(=O)N1CCN1CCCC1	n	98.0	n	82.2	n	n	33.6µM	24.8µM
CN1C(=O)c2cc(NC(=O)c3cscn3)ccc2OC[C@@H]2O[C@H](CC(=O)NCC3CC3)CC[C@H]21	x	n	n	x	n	n	x	x
Cc1cc(C)cc(OCC(O)CN2CCC(CN3C(=O)c4cccc5cccc(c45)C3=O)CC2)c1 (configuration not stated)	n	65.6	n	95.5	n	n	n	n
